Data on 2 molecules can be found in PubChem BioAssay (EPA / NIEHS).

Sequences of proteins named here, by UniProt entry; tags and fusion partners are left off.
UniProt P01375, whole entry: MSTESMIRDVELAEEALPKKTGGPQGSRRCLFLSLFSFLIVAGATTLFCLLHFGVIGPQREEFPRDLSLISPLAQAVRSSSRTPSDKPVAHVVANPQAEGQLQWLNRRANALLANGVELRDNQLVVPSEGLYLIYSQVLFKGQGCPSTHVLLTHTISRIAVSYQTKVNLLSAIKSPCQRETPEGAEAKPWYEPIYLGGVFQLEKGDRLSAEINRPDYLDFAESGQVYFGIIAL

Assay [1] can be described thus: CCTE_Shafer_MEA_acute_burst_percentage_std: CCTE's Neural Acute Assay for Standard Deviation of Burst Percentage, Shafer Lab (AID 2284018).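 Also: fitted in the negative direction so actives lower burst percentage SD.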 In a few lines: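 Primary rat cortical neurons on 16-electrode MEA wells were recorded 40 min at baseline (DIV 13 or 15), then 40 min after compound (0.03-40 uM), at 37 C. Well value is SD across electrodes of spikes-in-bursts/total spikes; endpoint is percent change, DMSO-referenced.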

Assay [2] can be described thus: CCTE_Shafer_MEA_acute_per_network_burst_spike_number_mean: CCTE's Neural Acute Assay for Average Number of Spikes in a Network Burst, Shafer Lab (AID 2284019).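 Also: curve fitted for loss of signal so actives reduce spikes per network burst.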 In a few lines: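 Primary rat cortical neurons on 16-electrode MEA wells, DIV 13 or 15, 37 C; 40-min baseline then 40-min recording with compound (0.03-40 uM). Spikes per network burst (total spikes/number of bursts) expressed as percent change from baseline, DMSO reference.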

Assay [3] can be described thus: CCTE_Shafer_MEA_acute_per_network_burst_spike_number_std: CCTE's Neural Acute Assay for Standard Deviation of Number of Spikes in a Network Burst, Shafer Lab (AID 2284020).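 Also: fitted for decrease in spike-number SD versus DMSO so actives lower it.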 In a few lines:
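Primary rat cortical neurons on 48-well MEAs (16 electrodes/well) recorded at DIV 13 or 15: 40-min baseline, then 40 min with compound (0.03-40 uM), 37 C. Value is percent change in SD of spikes per network burst, relative to DMSO.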

Assay [4] in a line: CCTE_Shafer_MEA_acute_per_network_burst_electrodes_number_mean: CCTE's Neural Acute Assay for Mean Number of Electrodes in a Network Burst, Shafer Lab (AID 2284021).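 Also: curves fitted for decreases only so hits reduce electrodes per burst.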 Put shortly:
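Cultures of rat cortex neurons were exposed on DIV 13 or 15 to compounds at 0.03-40 uM in at least three wells each. Activity over 40 min before and 40 min after exposure at 37 C gave the percent change in electrodes per network burst.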

The nature of assay [5]: CCTE_Shafer_MEA_acute_network_burst_percentage: CCTE's Neural Acute Assay for Percentage of Network Bursts, Shafer Lab (AID 2284022).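 Also: curves fitted for loss so actives lower network burst percentage.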 In a few lines:
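Cortical neurons from rat were grown over microelectrode arrays and used on day 13 or 15 in vitro. Wells with at least 10 active electrodes received test chemical at 0.03-40 uM. Activity during 40 min of exposure was compared with the preceding 40-min baseline.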

Assay [6] is described as follows: CCTE_Shafer_MEA_acute_cross_correlation_area: CCTE's Neural Acute Assay for Area of Cross Correlation, Shafer Lab (AID 2284024).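 Also: area under pooled inter-electrode spike cross-correlation near zero lag as percent change from own baseline; curves fitted for loss of cross-correlation area so actives lower synchrony.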 In a few lines: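 Acute exposure of mature rat cortical networks (day 13 or 15 post-plating) to 0.03-40 uM compound. Spontaneous spiking on MEA, 40 min pre- and post-dose at 37 C.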
The nature of assay [7]: CCTE_Shafer_MEA_acute_cross_correlation_HWHM: CCTE's Neural Acute Assay for Cross Correlation at Half Width at Half Maximum, Shafer Lab (AID 2284026).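 Also: spontaneous network firing of rat primary cortical neurons on multiwell microelectrode arrays; hits are a decrease in cross-correlogram half width relative to DMSO.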 Put shortly: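 Primary cortex (rat), MEA, DIV 13/15; compound 0.03-40 uM; 40 min pre + 40 min post at 37 C; spike threshold 8x rms; wells need ≥10 active electrodes; endpoint = % change in cross-correlogram HWHM vs baseline, DMSO negative control.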

A short description of assay [8]: CCTE_Shafer_MEA_acute_synchrony_index: CCTE's Neural Acute Assay for Synchrony, Shafer Lab (AID 2284027).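 Also: fitted for loss of signal so actives lower synchrony relative to DMSO.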 Put shortly:
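Readout is percent change in the unitless network synchrony index (0 low, 1 high) between a 40-min baseline and a 40-min recording in compound. Cultures were primary rat cortical neurons on MEAs, treated at 0.03-40 uM on DIV 13 or 15.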

A further assay concerns DIO2 (gene 1734). The experiment in a line: CCTE_GLTED_hDIO2: CCTE's human Deiodinase 2 (DIO2) Inhibition Assay, Great Lakes Toxicology and Ecology Division (GLTED) Lab (AID 2284050; active = hit-call score of the fitted dose curve at least 0.9, where 1 is the maximum). Put shortly:
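hDIO2 enzyme + test chem, 3 h → free iodide from substrate; step 2: Sandell-Kolthoff (Ce IV reduction by As, iodide-catalysed), spectrophotometric read. Triplicate plates; DMSO = baseline.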

For a further assay, the system named is DIO3 (gene 1735). Put plainly: CCTE_GLTED_hDIO3: CCTE's human Deiodinase 3 (DIO3) Inhibition Assay, Great Lakes Toxicology and Ecology Division (GLTED) Lab (AID 2284055; active = hit-call score of the fitted dose curve at least 0.9, where 1 is the maximum;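 also: potency is for inhibition seen as loss of released iodide signal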). In a few lines: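 Absorbance from the Sandell-Kolthoff reaction reports iodide released by human DIO3 during a 3-hour incubation with chemical. Inhibition scored as signal loss against DMSO controls.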

Assay [9] is described as follows: CCTE_Shafer_MEA_acute_LDH: CCTE's Lactate Dehydrogenase Assay for Cytotoxicity in the Neural Acute Assay, Shafer Lab (AID 2284086; active = hit-call score of the fitted dose curve at least 0.9, where 1 is the maximum;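 also: active means LDH release rises above DMSO vehicle level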). Put shortly:
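Rat cortical neurons cultured on microelectrode arrays; baseline 40-min recording, compound added, second 40-min recording; medium then sampled for released LDH (colorimetric kit, 490 nm). DMSO = negative control.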

Assay [10] in a line: BSK_BT_PBMCCytotoxicity: PBMC Cytotoxicity Assessment in the BioMAP Diversity Plus: BT Assay (AID 2284225).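 Also: PBMC viability measured by Alamar Blue dye reduction fluorescence.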 Particulars: primary human B cells with PBMC. Put shortly: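 PBMC (75,000/well) pretreated with compound 1 h, then activated with SEB and TSST-1 (20 ng/mL each final), incubated 90 h; Alamar Blue added 6 h, fluorescence read at 546/580 nm. Fitted relative to DMSO.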
Read-out in assay [11]: Secreted IgG (sIgG), gene 3500
The experiment in a line: BSK_BT_sIgG: BioMAP Diversity Plus: BT Assay for Secreted IgG (sIgG) Biomarker Activity (AID 2284226). The settings on record: primary human B cells with PBMC. Put shortly:
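Read-out: ELISA for secreted IgG after 24 h of chemical exposure in a B cell plus PBMC co-culture. Values reflect upward-direction fitting against DMSO negative controls.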

A short description of assay [12]: BSK_BT_Bcell_Proliferation: Viability Assessment in the BioMAP Diversity Plus: BT Assay for B cell Proliferation (AID 2284227). The settings on record: primary human B cells with PBMC. In a few lines:
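SRB-based protein staining (0.1% SRB after 10% TCA fixation, 560 nm) quantifies proliferation in human B cells co-cultured with PBMC, 72 h post-dosing, with signal gain scored relative to DMSO negative control.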

Read-out in assay [13]: Interleukin 6 (IL6), IL6 (gene 3569)
The experiment in a line: BSK_BT_xIL6: BioMAP Diversity Plus: BT Assay for Interleukin 6 (IL6) Biomarker Activity (AID 2284228). The settings on record: primary human B cells with PBMC. In a few lines: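 Chemical added to human B cell/PBMC co-culture → 24 h → supernatant IL-6 by Luminex xMAP → fit vs DMSO baseline, upward direction.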

Read-out in assay [14]: Interleukin 17A (IL17A), IL17A (gene 3605)
The experiment in a line: BSK_BT_xIL17A: BioMAP Diversity Plus: BT Assay for Interleukin 17A (IL17A) Biomarker Activity (AID 2284229). Particulars: primary human B cells with PBMC. Put shortly:
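Chemicals were added to a human B cell and PBMC co-culture. After 24 h, secreted IL-17A was measured with Luminex xMAP. Curves were fitted in the positive direction, with DMSO wells as baseline.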

Read-out in assay [15]: Tumor necrosis factor (Homo sapiens) (UniProt P01375)
Put plainly: BSK_BT_xTNFa: BioMAP Diversity Plus: BT Assay for Tumor necrosis factor alpha (TNF-alpha) Biomarker Activity (AID 2284230). The settings on record: primary human B cells with PBMC. Put shortly: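 Compounds were added to a B cell plus PBMC co-culture, and after 24 h secreted TNF-alpha was quantified with Luminex xMAP technology, with responses fitted upward from the DMSO control.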

Read-out in assay [16]: Vascular cell adhesion molecule 1 (VCAM1), VCAM1 (gene 7412)
The experiment in a line: BSK_MyoF_VCAM1: BioMAP Diversity Plus: MyoF Assay for Vascular cell adhesion molecule 1 (VCAM1) Biomarker Activity (AID 2284231). The settings on record: primary human lung fibroblasts. In a few lines:
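Steps: fibroblasts from human lung exposed to compound; biomarker quantified by ELISA at 24 h; values analysed for upward change over the DMSO baseline.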

Read-out in assay [17]: Collagen I, COL1A1 (gene 1277)
Put plainly: BSK_MyoF_CollagenI: BioMAP Diversity Plus: MyoF Assay for Collagen I Biomarker Activity (AID 2284238). The settings on record: primary human lung fibroblasts. In a few lines: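 Multiplexed primary human lung fibroblast system; Collagen I measured by ELISA at 24 h post-dose. Increases are referenced to DMSO.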

Read-out in assay [18]: Collagen III, COL3A1 (gene 1281)
The experiment in a line: BSK_MyoF_CollagenIII: BioMAP Diversity Plus: MyoF Assay for Collagen III Biomarker Activity (AID 2284239). Particulars: primary human lung fibroblasts. In a few lines: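 Compounds are added to primary human lung fibroblasts and left for 24 hours. Collagen III is then quantified by ELISA. Analysis takes DMSO as baseline and fits increases in signal.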

This is a selection; strong and weak results do not stand in their true shares. Results filed as inconclusive are left out. Activity calls are given as the source filed them. The calls were made as follows, unless noted: active = hit-call score of the fitted dose curve at least 0.9, where 1 is the maximum; inactive = score below 0.9.

The AC50 is the midpoint of the concentration-response curve, whichever way the signal moves. Consider `O=[N+]([O-])c1ccccc1[N+](=O)[O-]`, for which the result in assay [1], in [3], in [4], in [5], in assay [7] and in [8] was inactive. Further, the result in [9] was inactive. Besides, the AC50 in assay [2] is active: 1.44 µM; in assay [6] it was active: 15.5 µM; with DIO2 (gene 1734), active: 52.3 µM; in the assay on DIO3 (gene 1735) it was active: 42.9 µM.
On to `CC(C)OP(OC(C)C)OC(C)C`, for which the result in assay [10], in [11], in assay [12], in assay [13], in assay [14] and in assay [15] was inactive. In addition, the outcome in assay [16], in assay [17] and in assay [18] was inactive.
